From ChEMBL document CHEMBL1129825, “trans N-Methyl-N-[2-(1-pyrrolidinyl)cyclohexyl] cycloprop-2-ene-1-carboxamides: Novel lipophilic kappa opioid agonists” (1997)
Where “and” joins values, the source holds several entries; their conditions need not be identical. Equal entries are not always repeated.

Protein sequences, listed by entry. Tags and fused reporters are not part of them. Lines headed by an entry give the natural chain unless they say otherwise; changes in a name come on top.
UniProt P41145: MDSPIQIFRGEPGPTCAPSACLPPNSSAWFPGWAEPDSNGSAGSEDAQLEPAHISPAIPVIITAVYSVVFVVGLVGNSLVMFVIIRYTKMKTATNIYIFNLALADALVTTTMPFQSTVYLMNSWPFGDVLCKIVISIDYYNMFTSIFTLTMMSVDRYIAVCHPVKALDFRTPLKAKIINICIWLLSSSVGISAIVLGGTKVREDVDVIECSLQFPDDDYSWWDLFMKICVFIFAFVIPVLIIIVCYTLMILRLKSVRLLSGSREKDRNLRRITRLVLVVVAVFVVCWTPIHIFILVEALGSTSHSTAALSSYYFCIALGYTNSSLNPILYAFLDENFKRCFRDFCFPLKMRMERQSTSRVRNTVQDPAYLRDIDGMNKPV
UniProt P33535, whole entry, looked up: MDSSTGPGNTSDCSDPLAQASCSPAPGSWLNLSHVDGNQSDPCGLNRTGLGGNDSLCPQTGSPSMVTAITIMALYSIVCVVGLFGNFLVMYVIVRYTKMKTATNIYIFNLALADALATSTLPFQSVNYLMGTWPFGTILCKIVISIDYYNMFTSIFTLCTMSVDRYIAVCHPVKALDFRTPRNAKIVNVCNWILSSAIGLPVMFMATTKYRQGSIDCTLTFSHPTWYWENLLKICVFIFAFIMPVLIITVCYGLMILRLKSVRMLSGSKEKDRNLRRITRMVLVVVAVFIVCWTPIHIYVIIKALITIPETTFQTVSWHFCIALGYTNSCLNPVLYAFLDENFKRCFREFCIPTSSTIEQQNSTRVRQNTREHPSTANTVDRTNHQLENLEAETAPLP
UniProt P34975: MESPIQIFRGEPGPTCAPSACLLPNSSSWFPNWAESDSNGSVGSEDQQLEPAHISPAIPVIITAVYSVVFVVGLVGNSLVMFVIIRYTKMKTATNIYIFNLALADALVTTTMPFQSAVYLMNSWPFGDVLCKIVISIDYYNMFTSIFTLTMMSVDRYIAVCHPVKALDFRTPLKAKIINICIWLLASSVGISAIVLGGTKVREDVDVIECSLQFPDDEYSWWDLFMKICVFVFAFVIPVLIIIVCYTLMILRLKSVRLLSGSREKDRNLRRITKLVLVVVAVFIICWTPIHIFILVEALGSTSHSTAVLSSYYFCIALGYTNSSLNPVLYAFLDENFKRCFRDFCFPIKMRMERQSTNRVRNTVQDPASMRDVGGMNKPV

Key:
[1] = target: Kappa-type opioid receptor (Homo sapiens, UniProt P41145); test: Inhibition of Opioid receptor kappa 1 as reduced contraction in electrically stimulated rabbit vas deferens
[2] = target: Mu-type opioid receptor (Rattus norvegicus, UniProt P33535); test: Compound was evaluated for the inhibition of binding of [3H]DAGO to rat brain mu opioid receptor
[3] = species on record: Mus musculus; test: Compound was evaluated for antinociceptive activity using phenylbenzylquinone induced writhing assay in mouse.
[4] = species on record: Mus musculus; test: Compound was tested in mouse for sedation using a rotarod assay.
[5] = Partition coefficient (logP); conditions: octanol/water
[6] = target: Kappa-type opioid receptor (Rattus norvegicus, UniProt P34975); test: Compound was evaluated for the inhibition of binding of [3H]U-69593 to cloned rat Opioid receptor kappa 1 expressed in CHO cell line
[7] = Partition coefficient (logD); conditions: octanol/water

| SMILES | EC50 [1] | further results |
| --- | --- | --- |
| CN(C(=O)C1C(c2ccccc2)=C1c1ccccc1)[C@H]1CCCC[C@@H]1N1CCCC1 | 32 nM |  |
| CN(C(=O)C1C(c2ccccc2)=C1c1ccc(Cl)cc1)[C@H]1CCCC[C@@H]1N1CCCC1 (stereo partly drawn) | > 10000 nM |  |
| CN(C(=O)C1C(c2ccccc2)=C1c1cccc(Cl)c1)[C@H]1CCCC[C@@H]1N1CCCC1 (stereo partly drawn) | 141 nM |  |
| CN(C(=O)C1C(c2ccccc2)=C1c1ccccc1)[C@H]1CC[C@@]2(CCCO2)C[C@@H]1N1CCCC1 | 9.6 nM | Ki [2]: > 1000 nM; ED50 [3]: 0.19 mg/kg and 0.2 mg/kg; ED50 [4]: 0.6 mg/kg; logP [5]: 4.39; Ki [6]: 0.64 nM; logD [7]: 2.37 |
| CN(C(=O)C(c1ccccc1)c1ccccc1)[C@H]1CCCC[C@@H]1N1CCCC1 | > 10000 nM |  |
| CN(C(=O)C1CC1(c1ccccc1)c1ccccc1)[C@H]1CCCC[C@@H]1N1CCCC1 (stereo partly drawn) | > 10000 nM |  |
| CN(C(=O)Cc1cccc2occc12)[C@H]1CC[C@@]2(CCCO2)C[C@@H]1N1CCCC1 | 3.3 nM | Ki [2]: 87.4 nM; ED50 [4]: 0.13 mg/kg; logP [5]: 3.13; Ki [6]: 0.1 nM; logD [7]: 1.55 |
| COc1cccc(C2=C(c3ccccc3)C2C(=O)N(C)[C@H]2CCCC[C@@H]2N2CCCC2)c1 (stereo partly drawn) | 300 nM |  |
| CN(C(=O)C1C(c2ccccc2)C1c1ccccc1)[C@H]1CCCC[C@@H]1N1CCCC1 (stereo partly drawn) | > 10000 nM |  |
| CN(C(=O)CC(c1ccccc1)c1ccccc1)[C@H]1CCCC[C@@H]1N1CCCC1 | > 10000 nM |  |
| COC(=O)C1(C(=O)N(C)[C@H]2CCCC[C@@H]2N2CCCC2)C(c2ccccc2)=C1c1ccccc1 | 3000 nM |  |
| CN(C(=O)C1(C(=O)O)C(c2ccccc2)=C1c1ccccc1)[C@H]1CCCC[C@@H]1N1CCCC1 | > 10000 nM |  |
